Legend:
[1] = target: Sigma-1 receptors; conditions: Table 11E, clinical compounds; first figure of S1/S2; read-out: Sigma Affinity (S1); cited from earlier work
[2] = tested on: Abeta oligomer-induced memory deficits in wt C57BL/6 mice; test: Contextual fear conditioning, intrahippocampal Abeta oligomers; conditions: mouse, in vivo
Experimental: Several pharmaceutical companies use this same model in their discovery efforts. Contextual fear conditioning is an accepted model of associative memory formation which correlates to human cognitive function and specifically the creation of new memories (Delgado '06). Abeta oligomers are injected into the hippocampus of wild-type animals immediately before conditioning training and memory is assessed via freezing behavior after 24 hours. See, for example, FIGS. 4 and 8. Details are provided in Example 9. […] This model system was chosen because intrahippocampal administration of oligomers allows rapid comparative assessment of compound activity and off-target toxicity. The results are shown graphically in FIG. 4.
Compound II was tested in an animal model of a memory-dependent behavioral task known as fear conditioning. The study protocol was designed based on published protocols (See e.g. Puzzo D, Privitera L, Leznik E, Fà M, Staniszewski A, Palmeri A, Arancio O. Picomolar amyloid-beta positively modulates synaptic plasticity and memory in hippocampus. J. Neurosci. 2008 Dec. 31; 28(53):14537-45.). The formation of contextual memories is dependent upon the integrity of medial temporal lobe structures such as the hippocampus. […]

[3] = male, C57BL/6, mouse
[4] = Mouse hepatic microsome stability; conditions: microsomes
[5] = tested on: Abeta oligomer-induced membrane trafficking deficits in primary hippocampal neurons; test: Membrane trafficking/exocytosis (MTT) assay; type: cell-based, rat; conditions: 20 uM versus 0 uM enantiomer

CC(C)=CCN1CCC2(C)c3cc(O)ccc3CC1C2C (stereo not shown) [Pentazocine, pentazocine]
Ki [1]: 1.2 nM

COc1cc(CCC(C)NCc2ccc(C(F)(F)F)cc2)ccc1O (stereo not shown) [Compound II]
Behavioral efficiency [2]: Yes | brain concentration relative to the efficacious brain dose in vivo ([3]; 180 min): 57 × | amount in brain relative to the 50 ng/mL efficacious dose ([3]; in vivo, po, 3 h): ~40 × | half-life [4]: 16 min

COc1cc(CCC(C)NCc2ccc(C(F)(F)F)cc2)ccc1O (single isomer, unassigned; (+)) [(+) enantiomer of Cpd II]
Curve shift (fold) [5]: 2.86 fold

COc1cc(CCC(C)NCc2ccc(C(F)(F)F)cc2)ccc1O (single isomer, unassigned; (-)) [(−) enantiomer of Cpd II]
Curve shift (fold) [5]: 1.22 fold

— US20140378460A1, “COMPOSITIONS AND METHODS FOR TREATING NEURODEGENERATIVE DISEASE” (COGNITION THERAPEUTICS, INC., priority 2011, published 2014)
